Assay [1] deals with Tyrosine-protein kinase ABL1 (Homo sapiens, UniProt P00519). In words: Inhibition of ABL.
Assay [2] addresses Fibroblast growth factor receptor 3 (Homo sapiens, UniProt P22607). In words: Inhibition of FGFR3.
Assay [3] has as its target Angiopoietin-1 receptor (Homo sapiens, UniProt Q02763). In words: Inhibition of Tie2.

Chains of the proteins cited; added tags and fusions are not shown. Lines headed by an entry give the natural chain unless they say otherwise; changes in a name come on top.
UniProt P00519, whole entry: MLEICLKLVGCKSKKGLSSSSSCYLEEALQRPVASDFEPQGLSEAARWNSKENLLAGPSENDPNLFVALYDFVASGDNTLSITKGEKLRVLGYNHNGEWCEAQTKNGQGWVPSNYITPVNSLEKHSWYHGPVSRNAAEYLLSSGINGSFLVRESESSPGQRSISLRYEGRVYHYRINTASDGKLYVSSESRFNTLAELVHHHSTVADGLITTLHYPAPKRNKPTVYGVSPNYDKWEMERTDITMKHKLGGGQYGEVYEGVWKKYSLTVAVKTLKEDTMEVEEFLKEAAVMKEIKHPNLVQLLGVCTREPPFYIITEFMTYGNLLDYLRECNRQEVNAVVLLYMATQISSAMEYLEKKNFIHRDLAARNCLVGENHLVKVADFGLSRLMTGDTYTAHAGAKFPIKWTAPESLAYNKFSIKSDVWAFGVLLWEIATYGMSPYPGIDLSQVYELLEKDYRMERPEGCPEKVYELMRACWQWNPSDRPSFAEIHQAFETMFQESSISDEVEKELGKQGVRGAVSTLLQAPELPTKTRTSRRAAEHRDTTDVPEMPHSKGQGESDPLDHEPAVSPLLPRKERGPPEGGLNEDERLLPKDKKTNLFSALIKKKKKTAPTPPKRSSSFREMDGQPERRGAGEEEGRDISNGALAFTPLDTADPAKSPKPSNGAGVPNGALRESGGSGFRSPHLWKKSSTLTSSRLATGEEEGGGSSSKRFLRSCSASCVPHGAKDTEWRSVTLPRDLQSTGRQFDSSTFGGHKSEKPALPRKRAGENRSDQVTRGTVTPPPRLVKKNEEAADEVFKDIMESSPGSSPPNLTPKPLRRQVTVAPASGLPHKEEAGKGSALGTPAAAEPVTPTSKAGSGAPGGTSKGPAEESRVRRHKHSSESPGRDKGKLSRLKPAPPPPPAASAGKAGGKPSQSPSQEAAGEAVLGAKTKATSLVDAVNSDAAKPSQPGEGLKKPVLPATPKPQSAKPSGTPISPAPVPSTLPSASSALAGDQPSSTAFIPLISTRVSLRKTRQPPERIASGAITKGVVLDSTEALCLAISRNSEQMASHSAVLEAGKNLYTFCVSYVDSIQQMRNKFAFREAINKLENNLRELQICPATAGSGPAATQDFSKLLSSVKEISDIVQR
UniProt P22607, whole entry: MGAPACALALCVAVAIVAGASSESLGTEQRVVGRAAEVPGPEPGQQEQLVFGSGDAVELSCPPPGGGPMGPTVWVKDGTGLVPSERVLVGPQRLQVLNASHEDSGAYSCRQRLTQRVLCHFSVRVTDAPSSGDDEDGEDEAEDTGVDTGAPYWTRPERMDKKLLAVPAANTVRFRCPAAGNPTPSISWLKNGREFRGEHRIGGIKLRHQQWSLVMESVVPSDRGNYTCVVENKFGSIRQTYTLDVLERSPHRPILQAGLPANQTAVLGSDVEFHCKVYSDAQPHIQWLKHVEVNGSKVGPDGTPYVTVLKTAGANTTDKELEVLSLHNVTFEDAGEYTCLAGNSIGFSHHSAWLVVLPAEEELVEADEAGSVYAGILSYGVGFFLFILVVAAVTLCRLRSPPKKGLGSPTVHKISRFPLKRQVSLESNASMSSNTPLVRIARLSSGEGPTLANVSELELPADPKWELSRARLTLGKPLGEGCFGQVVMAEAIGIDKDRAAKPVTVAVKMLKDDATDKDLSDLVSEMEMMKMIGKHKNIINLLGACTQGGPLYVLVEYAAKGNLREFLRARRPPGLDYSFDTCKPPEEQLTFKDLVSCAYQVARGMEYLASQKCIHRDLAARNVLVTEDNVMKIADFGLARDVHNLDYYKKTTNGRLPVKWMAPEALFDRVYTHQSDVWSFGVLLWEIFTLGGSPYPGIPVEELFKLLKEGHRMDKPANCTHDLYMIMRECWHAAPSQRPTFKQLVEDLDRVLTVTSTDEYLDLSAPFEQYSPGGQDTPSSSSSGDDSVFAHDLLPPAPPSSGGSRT
UniProt Q02763: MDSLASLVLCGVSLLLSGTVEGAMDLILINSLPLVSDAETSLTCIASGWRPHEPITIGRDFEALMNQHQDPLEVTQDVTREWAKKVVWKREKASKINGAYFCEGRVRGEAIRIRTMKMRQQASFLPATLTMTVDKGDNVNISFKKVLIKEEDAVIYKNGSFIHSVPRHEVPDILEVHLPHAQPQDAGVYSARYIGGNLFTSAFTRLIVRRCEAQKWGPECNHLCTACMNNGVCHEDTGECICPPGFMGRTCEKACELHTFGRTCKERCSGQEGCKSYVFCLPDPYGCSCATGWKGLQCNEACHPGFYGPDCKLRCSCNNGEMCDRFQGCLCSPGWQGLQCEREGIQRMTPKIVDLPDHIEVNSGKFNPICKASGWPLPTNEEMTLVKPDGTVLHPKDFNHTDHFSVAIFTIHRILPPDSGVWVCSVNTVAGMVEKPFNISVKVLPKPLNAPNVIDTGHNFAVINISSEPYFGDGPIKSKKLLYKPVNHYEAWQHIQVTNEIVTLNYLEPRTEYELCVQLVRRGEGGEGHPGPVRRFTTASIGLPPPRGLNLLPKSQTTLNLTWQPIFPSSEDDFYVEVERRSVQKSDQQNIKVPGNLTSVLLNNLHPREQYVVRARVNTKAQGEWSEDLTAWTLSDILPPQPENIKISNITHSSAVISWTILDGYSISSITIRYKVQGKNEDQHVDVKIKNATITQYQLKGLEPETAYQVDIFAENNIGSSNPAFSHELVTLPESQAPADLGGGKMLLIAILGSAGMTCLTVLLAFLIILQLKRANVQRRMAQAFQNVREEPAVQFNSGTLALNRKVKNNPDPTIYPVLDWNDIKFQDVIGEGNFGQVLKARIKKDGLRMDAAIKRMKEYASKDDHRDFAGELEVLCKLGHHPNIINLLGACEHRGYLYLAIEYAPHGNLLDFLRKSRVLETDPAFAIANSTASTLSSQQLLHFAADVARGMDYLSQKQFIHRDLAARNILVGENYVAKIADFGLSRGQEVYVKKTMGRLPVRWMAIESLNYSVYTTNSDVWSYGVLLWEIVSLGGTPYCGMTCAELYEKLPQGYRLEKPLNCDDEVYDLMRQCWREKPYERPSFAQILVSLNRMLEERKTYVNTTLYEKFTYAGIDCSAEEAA

What is called Ki is the dissociation constant of the complex between target and ligand, obtained from inhibition or displacement. For `Nc1nc(Nc2ccc([C@H]3CC[C@H](N4CCOCC4)CC3)cc2)nn1-c1ccccn1`, the inhibitory constant (Ki) in assay [1] was found to be 400 nM; in assay [2], 400 nM; in assay [3] it was 200 nM.

Values taken from ChEMBL document CHEMBL1955771, “VX-322: a novel dual receptor tyrosine kinase inhibitor for the treatment of acute myelogenous leukemia” (J Med Chem, 2012).
